Reference: patent US11053242B2, “[9,10-dimethoxy-3-(2-methylpropyl)-1H,2H,3H,4H,6H,7H,11BH-pyrido-[2,1-a]isoquinolin-2-yl]methanol and compounds, compositions and methods relating thereto” (Neurocrine Biosciences, Inc., priority 2015, dated 2021)

Chains of the proteins cited; added tags and fusions are not shown.
UniProt Q05940, whole entry: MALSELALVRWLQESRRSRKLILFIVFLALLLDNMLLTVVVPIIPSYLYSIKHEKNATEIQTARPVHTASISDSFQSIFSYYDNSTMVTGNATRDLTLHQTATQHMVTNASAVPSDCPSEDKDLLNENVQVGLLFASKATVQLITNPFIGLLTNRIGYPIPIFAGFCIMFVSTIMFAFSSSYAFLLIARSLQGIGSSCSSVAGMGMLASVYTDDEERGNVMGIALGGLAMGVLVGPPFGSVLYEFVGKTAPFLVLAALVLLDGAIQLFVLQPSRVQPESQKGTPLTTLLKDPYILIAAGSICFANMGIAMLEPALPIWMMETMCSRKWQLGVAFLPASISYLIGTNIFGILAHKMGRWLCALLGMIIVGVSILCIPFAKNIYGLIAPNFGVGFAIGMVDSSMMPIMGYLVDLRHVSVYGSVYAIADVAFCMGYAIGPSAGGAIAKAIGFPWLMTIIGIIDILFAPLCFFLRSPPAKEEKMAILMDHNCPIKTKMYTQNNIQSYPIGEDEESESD

Target: VMAT2 (human platelet homogenate) (Homo sapiens (Human), UniProt Q05940)
Assay: Human VMAT2 Ki, slightly modified competition binding procedure (Table 11);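 further: competition binding with 90 min incubation at 25 °C, after which filter-retained radioligand was measured by scintillation counting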
Settings: read-out: Ki nM, 10 nM 3H-dihydrotetrabenazine

## [2H]C([2H])([2H])OC[C@@H]1C[C@@H]2c3cc(OC)c(OC)cc3CCN2C[C@H]1CC(C)C
  Ki: < 10 nM
